Read-outs that look alike come from different tables or passages of the source.
Experiments:
Cdk4/cyclin D1 = Cdk4/cyclin D1 (Homo sapiens, UniProt P11802); test: Cdk4/cyclin D1 glutathione-sepharose capture kinase assay
HCT-116 cells [1] = test: Calcein AM viability assay, HCT-116
Cdk2/cyclin E = Cdk2/cyclin E (Homo sapiens, UniProt P24941); test: Cdk2/cyclin E glutathione-sepharose capture kinase assay
Cdc2/cyclin B = Cdc2/cyclin B (Homo sapiens, UniProt P06493); test: Cdc2/cyclin B TCA precipitation kinase assay
[2] = system: normal human fibroblast, IMR90; test: Calcein AM viability assay, IMR90; details: read-out: IMR90 viability IC50, 72 h
Cdk2/cyclin A = Cdk2/cyclin A (Homo sapiens, UniProt P24941); test: Cdk2/cyclin A glutathione-sepharose capture kinase assay; details: read-out: Cdk2/Cyclin A IC50; Table 3
[3] = system: adriamycin resistant cell line (ADR-res); details: read-out: NCI panel ADR-res IC50; 48 h, SRB
Cdk6/cyclin D2 = Cdk6/cyclin D2 (Homo sapiens, UniProt Q00534); test: Cdk6/cyclin D2 glutathione-sepharose capture kinase assay; type: biochemical; details: read-out: Cdk6/Cyclin D2 IC50; Table 3
HCT-116 cells [4] = test: Clonogenic survival assay with HCT-116 cells
[5] = system: NCI panel of 60 cell lines
[6] = target: protein kinase C (mixed isozymes); test: Protein kinase C TCA precipitation assay; details: read-out: PKC IC50; Table 3
Abl (c-Abl) = Abl (c-Abl) (Homo sapiens, UniProt P00519); test: Abl kinase assay; type: biochemical; details: read-out: c-Abl IC50; Table 3
[7] = target: Protein kinase A (catalytic subunit) (Bos taurus, UniProt P00517); test: Protein kinase A TCA precipitation assay; details: read-out: PKA IC50; Table 3
[8] = read-out: Cdk4/cyclin D1 IC50, Table 4
[9] = read-out: HCT-116 viability IC50, non-protein adjusted, Table 4
[10] = read-out: Cdk2/cyclin E IC50, Table 4
[11] = read-out: Cdc2/cyclin B IC50, Table 4
[12] = read-out: Cdk4/Cyclin D IC50, Table 3
[13] = read-out: HCT-116 IC50 Viability, Calcein AM, 72 h
[14] = read-out: Cdk2/Cyclin E IC50, Table 3
[15] = read-out: Cdc2/Cyclin B IC50, Table 3
[16] = read-out: HCT-116 IC50 Protein adjusted, plus 1 mg/ml alpha acidic glycoprotein and 45 mg/ml human serum albumin
[17] = read-out: HCT-116 IC50 Clonogenic 24 h, 24 h exposure

Amino acid sequences for entries named in this document (tags omitted).
UniProt P11802, whole entry: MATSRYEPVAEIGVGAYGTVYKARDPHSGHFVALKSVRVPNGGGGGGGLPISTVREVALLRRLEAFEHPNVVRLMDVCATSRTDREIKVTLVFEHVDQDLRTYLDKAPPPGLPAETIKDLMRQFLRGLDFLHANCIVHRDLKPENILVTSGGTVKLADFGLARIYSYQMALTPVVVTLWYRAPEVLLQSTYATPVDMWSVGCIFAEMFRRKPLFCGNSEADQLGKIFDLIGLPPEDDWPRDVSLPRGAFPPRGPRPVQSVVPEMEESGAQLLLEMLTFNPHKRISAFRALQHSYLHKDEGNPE
UniProt P06493, whole entry: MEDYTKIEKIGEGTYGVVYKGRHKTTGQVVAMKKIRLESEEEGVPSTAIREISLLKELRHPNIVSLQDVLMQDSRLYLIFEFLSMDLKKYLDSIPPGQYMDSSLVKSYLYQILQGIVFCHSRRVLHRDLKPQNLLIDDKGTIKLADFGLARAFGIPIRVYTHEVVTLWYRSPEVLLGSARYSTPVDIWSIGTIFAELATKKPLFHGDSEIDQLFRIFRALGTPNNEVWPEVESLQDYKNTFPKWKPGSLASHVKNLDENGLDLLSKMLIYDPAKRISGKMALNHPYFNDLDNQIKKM
UniProt Q00534, whole entry: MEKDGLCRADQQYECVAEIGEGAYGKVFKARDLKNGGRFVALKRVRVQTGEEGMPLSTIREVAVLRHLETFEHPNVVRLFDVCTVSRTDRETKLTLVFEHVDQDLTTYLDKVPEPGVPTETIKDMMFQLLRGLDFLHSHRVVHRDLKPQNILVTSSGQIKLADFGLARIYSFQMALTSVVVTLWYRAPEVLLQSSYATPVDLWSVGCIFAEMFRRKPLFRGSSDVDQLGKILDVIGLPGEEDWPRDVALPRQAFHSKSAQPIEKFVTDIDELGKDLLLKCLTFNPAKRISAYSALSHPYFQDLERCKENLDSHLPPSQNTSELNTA
UniProt P00519, whole entry: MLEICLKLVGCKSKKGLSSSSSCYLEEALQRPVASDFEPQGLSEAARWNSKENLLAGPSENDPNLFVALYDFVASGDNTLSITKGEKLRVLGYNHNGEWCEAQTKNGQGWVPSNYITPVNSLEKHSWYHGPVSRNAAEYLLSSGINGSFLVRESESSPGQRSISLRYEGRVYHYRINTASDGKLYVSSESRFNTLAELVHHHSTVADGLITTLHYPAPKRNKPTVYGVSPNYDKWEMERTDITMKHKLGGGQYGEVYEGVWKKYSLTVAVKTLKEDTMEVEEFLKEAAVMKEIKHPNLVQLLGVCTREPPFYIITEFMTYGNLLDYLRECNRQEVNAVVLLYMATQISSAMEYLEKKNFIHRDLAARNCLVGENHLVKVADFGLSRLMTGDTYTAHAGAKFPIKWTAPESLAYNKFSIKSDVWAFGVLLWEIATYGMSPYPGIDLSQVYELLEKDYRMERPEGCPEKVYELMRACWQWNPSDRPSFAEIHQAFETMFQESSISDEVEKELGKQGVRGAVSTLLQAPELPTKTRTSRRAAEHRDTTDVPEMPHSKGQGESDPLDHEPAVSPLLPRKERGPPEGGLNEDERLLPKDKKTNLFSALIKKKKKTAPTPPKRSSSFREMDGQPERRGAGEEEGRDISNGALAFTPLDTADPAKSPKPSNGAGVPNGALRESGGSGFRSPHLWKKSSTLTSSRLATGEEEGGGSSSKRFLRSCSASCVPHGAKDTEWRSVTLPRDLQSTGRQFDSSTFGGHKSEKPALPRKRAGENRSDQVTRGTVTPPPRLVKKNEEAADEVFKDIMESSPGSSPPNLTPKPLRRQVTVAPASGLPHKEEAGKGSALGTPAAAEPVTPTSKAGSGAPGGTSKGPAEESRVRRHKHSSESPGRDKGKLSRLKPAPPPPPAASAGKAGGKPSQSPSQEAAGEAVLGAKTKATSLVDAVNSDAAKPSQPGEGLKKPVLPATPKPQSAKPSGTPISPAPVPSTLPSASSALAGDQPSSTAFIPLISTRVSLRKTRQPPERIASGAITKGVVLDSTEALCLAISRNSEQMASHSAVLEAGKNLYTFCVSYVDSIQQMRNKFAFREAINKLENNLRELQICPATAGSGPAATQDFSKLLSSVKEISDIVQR
UniProt P14635, whole entry partner: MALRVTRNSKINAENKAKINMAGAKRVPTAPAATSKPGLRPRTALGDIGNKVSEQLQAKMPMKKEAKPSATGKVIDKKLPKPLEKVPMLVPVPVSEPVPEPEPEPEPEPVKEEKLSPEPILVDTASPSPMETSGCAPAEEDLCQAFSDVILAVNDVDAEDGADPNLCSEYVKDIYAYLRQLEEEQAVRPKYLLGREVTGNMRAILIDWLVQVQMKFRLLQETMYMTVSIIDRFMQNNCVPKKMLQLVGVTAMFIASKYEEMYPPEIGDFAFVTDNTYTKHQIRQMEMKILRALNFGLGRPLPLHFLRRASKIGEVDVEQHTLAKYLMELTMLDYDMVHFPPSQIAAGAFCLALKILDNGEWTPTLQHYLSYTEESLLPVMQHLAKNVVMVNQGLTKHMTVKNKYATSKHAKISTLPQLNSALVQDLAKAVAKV
UniProt P24385, whole entry partner: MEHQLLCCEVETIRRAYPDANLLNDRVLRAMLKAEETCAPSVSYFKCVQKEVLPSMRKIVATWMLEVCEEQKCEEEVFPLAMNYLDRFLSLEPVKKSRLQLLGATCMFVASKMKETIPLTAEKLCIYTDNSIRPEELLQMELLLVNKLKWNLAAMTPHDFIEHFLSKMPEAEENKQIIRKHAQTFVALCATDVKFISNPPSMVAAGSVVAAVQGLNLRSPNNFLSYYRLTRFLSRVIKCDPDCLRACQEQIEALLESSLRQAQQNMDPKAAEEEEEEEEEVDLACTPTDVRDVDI
UniProt P30279, whole entry partner: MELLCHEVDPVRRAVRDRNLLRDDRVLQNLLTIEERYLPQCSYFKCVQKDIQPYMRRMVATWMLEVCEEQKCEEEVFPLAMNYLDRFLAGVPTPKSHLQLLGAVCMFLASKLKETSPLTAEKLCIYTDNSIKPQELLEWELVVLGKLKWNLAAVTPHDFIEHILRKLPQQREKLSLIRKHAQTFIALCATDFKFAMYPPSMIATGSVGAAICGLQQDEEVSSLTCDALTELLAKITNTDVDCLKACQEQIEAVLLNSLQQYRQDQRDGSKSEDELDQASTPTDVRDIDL

Row | Compound | IC50 (Cdk4/cyclin D1; [8]) [nM] | IC50 (HCT-116 cells [1]; [9]) [nM] | IC50 (Cdk2/cyclin E; [10]) [nM] | IC50 (Cdc2/cyclin B; [11]) [nM] | other results
1 | CC(C)c1nn(-c2c(Cl)cccc2Cl)c2nc(Cc3ccc(OCCOP(=O)(O)O)cc3)[nH]c(=O)c12 | < 10000 | < 100 | < 100 | < 100 | –
2 | CC(C)c1nn(-c2c(Cl)cc(S(N)(=O)=O)cc2Cl)c2nc(Cc3ccc(OCCN4CCOCC4)cc3)[nH]c(=O)c12 | < 1000 | < 100 | < 10 | < 10 | –
3 | CC(C)c1nn(-c2c(Cl)cccc2Cl)c2nc(Cc3ccc(NS(=O)(=O)CCCN4CCOCC4)cc3)[nH]c(=O)c12 | < 1000 | < 100 | < 100 | < 1000 | –
4 | CC(C)c1nn(-c2c(Cl)cccc2Cl)c2nc(Cc3ccc(CN4CCCC4)c(O)c3)[nH]c(=O)c12 | – | < 100 | < 100 | – | –
5 | CC(C)c1nn(-c2c(Cl)cccc2Cl)c2nc(Cc3ccc(OP(=O)(O)O)cc3)[nH]c(=O)c12 | – | – | – | – | IC50 (Cdk4/cyclin D1; [12]): < 10000 nM; IC50 [2]: < 1000 nM; IC50 (HCT-116 cells [1]; [13]): < 1000 nM; IC50 (Cdk2/cyclin E; [14]): < 10 nM; IC50 (Cdc2/cyclin B; [15]): < 100 nM; IC50 (Cdk2/cyclin A): < 100 nM
6 | CC(C)c1nn(-c2c(Cl)cc(Cl)cc2Cl)c2nc(Cc3ccc(CN4CCN(C(C)C)CC4)n3C)[nH]c(=O)c12 | < 1000 | < 100 | < 100 | < 1000 | –
7 | CC(C)c1nn(-c2c(Cl)cc(Cl)cc2Cl)c2nc(Cc3ccc(CNC(CO)CO)n3C)[nH]c(=O)c12 | – | < 100 | < 10 | – | –
8 | CCN(CCO)S(=O)(=O)c1cc(Cl)c(-n2nc(C(C)C)c3c(=O)[nH]c(Cc4ccc(OCCN5CCOCC5)cc4)nc32)c(Cl)c1 | < 10000 | < 100 | < 100 | < 100 | –
9 | CC(C)c1nn(-c2c(Cl)cccc2Cl)c2nc(Cc3ccc(OCCN4CCOCC4)cc3)[nH]c(=O)c12 | < 10000 | < 100 | < 10 | < 1000 | –
10 | Cc1nc(Cc2nc3c(c(C(C)C)nn3-c3c(Cl)cccc3Cl)c(=O)[nH]2)cs1 | < 10000 | < 100 | < 10 | < 10000 | –
11 | CC(C)c1nn(-c2c(Cl)cc(Cl)cc2Cl)c2nc(Cc3ccc(OCCN4CCOCC4)cc3)[nH]c(=O)c12 | – | – | – | – | IC50 (Cdk4/cyclin D1; [12]): < 1000 nM; IC50 [2]: < 100 nM; IC50 (HCT-116 cells [1]; [16]): < 1000 nM; IC50 (HCT-116 cells [1]; [13]): < 100 nM; IC50 (Cdk2/cyclin E; [14]): < 100 nM; IC50 [3]: < 1000 nM; IC50 (Cdk6/cyclin D2): < 1000 nM; IC50 (HCT-116 cells [4]; [17]): < 1000 nM; IC50 (HCT-116 cells [4]; read-out: HCT-116 IC50 Clonogenic 48 h, 48 h exposure): < 100 nM; IC50 (HCT-116 cells [4]; read-out: HCT-116 IC50 Clonogenic 72 h, 72 h exposure): < 100 nM; IC50 (Cdc2/cyclin B; [15]): < 1000 nM; IC50 [5]: < 100 nM; IC50 (Cdk2/cyclin A): < 100 nM
12 | CC(C)c1nn(-c2c(Cl)cccc2Cl)c2nc(Cc3ccc(OCCOC(=O)[C@@H](N)C(C)C)cc3)[nH]c(=O)c12 | < 10000 | < 100 | < 100 | < 1000 | –
13 | CC(C)c1nn(-c2c(Cl)cc(Cl)cc2Cl)c2nc(Cc3ccc(NS(=O)(=O)CCCN4CCCCC4)cc3)[nH]c(=O)c12 | – | < 100 | < 100 | < 1000 | –
14 | CC(C)c1nn(-c2c(Cl)cccc2Cl)c2nc(Cc3ccc(O)cc3)[nH]c(=O)c12 | < 100 | < 100 | < 10 | < 100 | –
15 | CC(C)c1nn(-c2c(Cl)cccc2Cl)c2nc(Cc3ccc(OCCO)cc3)[nH]c(=O)c12 | < 1000 | < 100 | < 100 | < 100 | –
16 | COCCOc1ccc(Cc2nc3c(c(C(C)C)nn3-c3c(Cl)cccc3Cl)c(=O)[nH]2)cc1 | < 10000 | < 100 | < 100 | < 100 | –
17 | CC(C)c1nn(-c2c(Cl)cccc2Cl)c2nc(Cc3ccc(CN4CCN(C(C)C)CC4)c(O)c3)[nH]c(=O)c12 | – | < 100 | < 100 | < 1000 | –
18 | CC(C)c1nn(-c2c(Cl)cc(Cl)cc2Cl)c2nc(Cc3ccc(OCCN4CCN(C(C)C)CC4)cc3)[nH]c(=O)c12 | < 1000 | < 100 | < 10 | < 100 | –
19 | CC(C)c1nn(-c2c(Cl)cc(Cl)cc2Cl)c2nc(Cc3ccc(NS(=O)(=O)CCCN4CCN(C(C)C)CC4)cc3)[nH]c(=O)c12 | < 1000 | < 100 | < 100 | < 1000 | –
20 | CC(C)c1nn(-c2c(Cl)cc(Cl)cc2Cl)c2nc(Cc3ccc(CN4CCCC4)n3C)[nH]c(=O)c12 | < 1000 | < 100 | < 100 | < 1000 | –
21 | CC(C)c1nn(-c2c(Cl)cccc2Cl)c2nc(Cc3ccc(O)c(CN4CCOCC4)c3)[nH]c(=O)c12 | < 10000 | < 100 | < 100 | < 1000 | –
22 | CC(C)c1nn(-c2c(Cl)cc(Cl)cc2Cl)c2nc(Cc3ccc(OCCO)cc3)[nH]c(=O)c12 | < 1000 | < 100 | < 100 | < 100 | –
23 | CC(C)c1nn(-c2c(Cl)cc(Cl)cc2Cl)c2nc(Cc3ccc(NS(=O)(=O)CCCN4CCCC4)cc3)[nH]c(=O)c12 | < 1000 | < 100 | < 100 | < 1000 | –
24 | CC(C)c1nn(-c2c(Cl)cc(Cl)cc2Cl)c2nc(Cc3ccc(OCC(C)(C)O)cc3)[nH]c(=O)c12 | < 1000 | < 100 | < 100 | < 100 | –
25 | CC(C)c1nn(-c2c(Cl)cccc2Cl)c2nc(Cc3ccc(C(=O)NOCCN4CCOCC4)cc3)[nH]c(=O)c12 | < 1000 | < 100 | < 100 | < 1000 | –
26 | CC(C)c1nn(-c2c(Cl)cccc2Cl)c2nc(Cc3ccc(O)c(CN4CCN(C(C)C)CC4)c3)[nH]c(=O)c12 | – | – | – | – | IC50 (Cdk4/cyclin D1; [12]): < 1000 nM; IC50 [2]: < 100 nM; IC50 (HCT-116 cells [1]; [16]): < 1000 nM; IC50 (HCT-116 cells [1]; [13]): < 100 nM; IC50 [6]: > 10000 nM; IC50 (Cdk2/cyclin E; [14]): < 100 nM; IC50 [3]: < 100 nM; IC50 (HCT-116 cells [4]; [17]): < 1000 nM; IC50 (Abl (c-Abl)): > 10000 nM; IC50 [7]: > 10000 nM; IC50 (Cdc2/cyclin B; [15]): < 1000 nM; IC50 [5]: < 100 nM; IC50 (Cdk2/cyclin A): < 100 nM
27 | CCN1CCN(S(=O)(=O)c2cc(Cl)c(-n3nc(C(C)C)c4c(=O)[nH]c(Cc5ccc(OCCN6CCOCC6)cc5)nc43)c(Cl)c2)CC1 | < 10000 | < 10 | < 1000 | < 1000 | –
28 | CC(C)c1nn(-c2c(Cl)cccc2Cl)c2nc(Cc3ccc(OCCN4CCOCC4)c(O)c3)[nH]c(=O)c12 | < 100 | < 100 | < 100 | < 1000 | –
29 | COc1ccc(Cc2nc3c(c(C(C)C)nn3-c3c(Cl)cccc3Cl)c(=O)[nH]2)cc1 | – | < 100 | < 10 | < 100 | –
30 | CC(C)c1nn(-c2c(Cl)cccc2Cl)c2nc(Cc3ccc(OCC(C)(C)O)cc3)[nH]c(=O)c12 | < 1000 | < 100 | < 100 | < 100 | –

From patent US20080146555A1, “Uses of Kinase Inhibitors and Compositions Thereof” (GPC Biotech, Inc, priority 2004, published 2008)
